As usually defined, the IC50 is the point on the concentration scale where inhibition reaches its midpoint. A high value points to weaker potency in that assay.

The chains behind the UniProt entries cited, without tags or fusion partners. Residues count along the entry.
UniProt Q07820, 172-327: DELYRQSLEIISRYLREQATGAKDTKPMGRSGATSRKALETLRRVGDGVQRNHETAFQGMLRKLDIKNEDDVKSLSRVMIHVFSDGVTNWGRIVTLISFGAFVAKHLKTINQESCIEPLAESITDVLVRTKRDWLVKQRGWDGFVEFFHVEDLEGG

The target of assay [1] is T1, MCL-1 (Homo sapiens, UniProt Q07820). The conditions noted are these: IC50 HRK/MCL-1 divided by IC50 HRK/BCL-xL.
For assay [2], the target named is T1, MCL-1. The assay can be described thus: biochemical.

The structures appear in SMILES notation.

For `CSCC[C@H](NC(=O)[C@@H](NC(=O)[C@H](CCCNC(=N)N)NC(=O)[C@H](CCC(N)=O)NC(=O)[C@H](Cc1c[nH]cn1)NC(=O)[C@H](CC(C)C)NC(=O)[C@H](CCC(=O)O)NC(=O)[C@H](CC(=O)O)NC(=O)CNC(=O)[C@H](CC(C)C)NC(=O)[C@H](C)NC(=O)[C@H](CCCCN)NC(=O)[C@H](CC(C)C)NC(=O)[C@H](CCCNC(=N)N)NC(=O)[C@H](C)NC(=O)[C@H](C)NC(=O)[C@@H](NC(=O)[C@H](CC(C)C)NC(=O)[C@H](CCC(N)=O)NC(=O)[C@H](C)NC(=O)[C@H](C)NC(=O)[C@H](CO)NC(C)=O)[C@@H](C)O)[C@@H](C)O)C(=O)N[C@@H](Cc1c[nH]c2ccccc12)C(N)=O` [HRK-wt, reference compound], the “IC50 ratio MCL-1 : BCL-xL (selectivity index)” value at MCL-1 [1] is recorded as 1.2. For the same compound, the midpoint of inhibition against MCL-1 [2], the IC50, lay at 2700 ± 300 nM.

These data come from PMC9904277, “Rational design of Harakiri (HRK)-derived constrained peptides as BCL-xL inhibitors” (Chemical Communications (Cambridge, England), 2023).
